# Values of other authors as cited in patent US20220154183A1, “CHMP2A as a Regulator of Natural Killer Cell-Mediated Activity” (The Regents of the University of California, priority 2019, published 2022).
# System: HNSCC
substance,measurement,setting,value
Cetuximab,progression-free survival,"HNSCC patients, cetuximab monotherapy",5.6 months
same,patients responding,cetuximab as monotherapy,10-15%
